The chains behind the UniProt entries cited, without tags or fusion partners.
UniProt Q09472, whole entry: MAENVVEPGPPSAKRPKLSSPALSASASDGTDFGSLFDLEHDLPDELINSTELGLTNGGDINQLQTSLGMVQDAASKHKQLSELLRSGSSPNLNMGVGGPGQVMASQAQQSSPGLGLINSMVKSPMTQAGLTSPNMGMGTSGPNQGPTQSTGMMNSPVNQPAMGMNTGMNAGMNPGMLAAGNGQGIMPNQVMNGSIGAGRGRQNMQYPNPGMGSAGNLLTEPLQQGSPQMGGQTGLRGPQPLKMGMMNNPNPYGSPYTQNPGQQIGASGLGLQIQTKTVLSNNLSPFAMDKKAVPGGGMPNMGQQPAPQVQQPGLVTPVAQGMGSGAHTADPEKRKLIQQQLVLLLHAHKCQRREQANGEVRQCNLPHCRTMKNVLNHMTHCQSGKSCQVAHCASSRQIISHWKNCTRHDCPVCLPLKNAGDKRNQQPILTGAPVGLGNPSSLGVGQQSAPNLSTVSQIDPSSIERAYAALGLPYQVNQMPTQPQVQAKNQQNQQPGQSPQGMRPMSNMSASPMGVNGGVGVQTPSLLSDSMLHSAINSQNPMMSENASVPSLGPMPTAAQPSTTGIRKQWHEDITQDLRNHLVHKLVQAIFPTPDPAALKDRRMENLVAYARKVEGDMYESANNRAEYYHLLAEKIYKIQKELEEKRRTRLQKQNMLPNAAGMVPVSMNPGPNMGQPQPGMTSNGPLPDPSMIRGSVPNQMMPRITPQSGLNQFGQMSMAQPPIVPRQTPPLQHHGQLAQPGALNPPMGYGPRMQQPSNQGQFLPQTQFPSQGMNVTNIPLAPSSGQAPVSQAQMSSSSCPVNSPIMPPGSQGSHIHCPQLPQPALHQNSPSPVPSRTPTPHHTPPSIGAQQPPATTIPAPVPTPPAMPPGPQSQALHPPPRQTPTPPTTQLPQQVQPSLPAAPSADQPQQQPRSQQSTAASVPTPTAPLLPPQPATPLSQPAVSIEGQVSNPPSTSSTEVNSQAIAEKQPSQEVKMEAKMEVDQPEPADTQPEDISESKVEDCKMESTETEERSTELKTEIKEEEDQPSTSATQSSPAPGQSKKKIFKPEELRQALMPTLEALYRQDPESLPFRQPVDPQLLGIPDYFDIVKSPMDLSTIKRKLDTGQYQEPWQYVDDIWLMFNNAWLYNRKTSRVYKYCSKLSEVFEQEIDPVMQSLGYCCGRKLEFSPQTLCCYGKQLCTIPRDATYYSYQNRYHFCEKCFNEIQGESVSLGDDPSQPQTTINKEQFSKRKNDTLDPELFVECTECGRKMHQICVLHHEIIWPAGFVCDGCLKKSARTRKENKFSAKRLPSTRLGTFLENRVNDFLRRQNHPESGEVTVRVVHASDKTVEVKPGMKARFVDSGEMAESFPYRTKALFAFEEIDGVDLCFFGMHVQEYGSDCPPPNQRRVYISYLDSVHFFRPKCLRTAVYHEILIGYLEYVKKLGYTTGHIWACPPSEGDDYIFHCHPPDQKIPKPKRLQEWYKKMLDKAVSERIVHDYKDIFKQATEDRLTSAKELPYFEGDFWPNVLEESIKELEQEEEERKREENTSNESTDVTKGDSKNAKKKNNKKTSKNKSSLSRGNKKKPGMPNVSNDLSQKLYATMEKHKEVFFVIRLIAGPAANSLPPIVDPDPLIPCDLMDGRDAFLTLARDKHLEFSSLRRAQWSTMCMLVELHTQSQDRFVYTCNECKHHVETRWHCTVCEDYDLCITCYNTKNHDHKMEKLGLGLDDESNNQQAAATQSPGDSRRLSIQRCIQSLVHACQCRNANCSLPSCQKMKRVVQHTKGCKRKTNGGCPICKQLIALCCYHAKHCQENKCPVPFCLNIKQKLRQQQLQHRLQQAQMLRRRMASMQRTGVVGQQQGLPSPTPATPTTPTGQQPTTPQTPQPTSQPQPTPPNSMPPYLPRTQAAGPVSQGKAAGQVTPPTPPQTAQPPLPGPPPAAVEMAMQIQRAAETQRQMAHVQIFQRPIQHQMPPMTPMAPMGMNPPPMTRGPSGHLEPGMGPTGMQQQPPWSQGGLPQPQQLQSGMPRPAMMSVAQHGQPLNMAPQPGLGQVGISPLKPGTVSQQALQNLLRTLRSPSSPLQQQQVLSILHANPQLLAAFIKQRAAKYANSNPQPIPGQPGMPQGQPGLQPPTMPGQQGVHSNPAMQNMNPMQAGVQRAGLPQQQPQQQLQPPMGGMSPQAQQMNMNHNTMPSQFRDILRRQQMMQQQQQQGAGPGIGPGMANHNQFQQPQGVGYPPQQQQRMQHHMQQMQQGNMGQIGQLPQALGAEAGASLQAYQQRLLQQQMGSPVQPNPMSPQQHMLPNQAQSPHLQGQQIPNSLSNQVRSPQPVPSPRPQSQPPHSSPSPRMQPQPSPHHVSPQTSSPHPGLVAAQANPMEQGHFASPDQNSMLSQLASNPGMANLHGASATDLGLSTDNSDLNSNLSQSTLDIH
UniProt Q92793, whole entry: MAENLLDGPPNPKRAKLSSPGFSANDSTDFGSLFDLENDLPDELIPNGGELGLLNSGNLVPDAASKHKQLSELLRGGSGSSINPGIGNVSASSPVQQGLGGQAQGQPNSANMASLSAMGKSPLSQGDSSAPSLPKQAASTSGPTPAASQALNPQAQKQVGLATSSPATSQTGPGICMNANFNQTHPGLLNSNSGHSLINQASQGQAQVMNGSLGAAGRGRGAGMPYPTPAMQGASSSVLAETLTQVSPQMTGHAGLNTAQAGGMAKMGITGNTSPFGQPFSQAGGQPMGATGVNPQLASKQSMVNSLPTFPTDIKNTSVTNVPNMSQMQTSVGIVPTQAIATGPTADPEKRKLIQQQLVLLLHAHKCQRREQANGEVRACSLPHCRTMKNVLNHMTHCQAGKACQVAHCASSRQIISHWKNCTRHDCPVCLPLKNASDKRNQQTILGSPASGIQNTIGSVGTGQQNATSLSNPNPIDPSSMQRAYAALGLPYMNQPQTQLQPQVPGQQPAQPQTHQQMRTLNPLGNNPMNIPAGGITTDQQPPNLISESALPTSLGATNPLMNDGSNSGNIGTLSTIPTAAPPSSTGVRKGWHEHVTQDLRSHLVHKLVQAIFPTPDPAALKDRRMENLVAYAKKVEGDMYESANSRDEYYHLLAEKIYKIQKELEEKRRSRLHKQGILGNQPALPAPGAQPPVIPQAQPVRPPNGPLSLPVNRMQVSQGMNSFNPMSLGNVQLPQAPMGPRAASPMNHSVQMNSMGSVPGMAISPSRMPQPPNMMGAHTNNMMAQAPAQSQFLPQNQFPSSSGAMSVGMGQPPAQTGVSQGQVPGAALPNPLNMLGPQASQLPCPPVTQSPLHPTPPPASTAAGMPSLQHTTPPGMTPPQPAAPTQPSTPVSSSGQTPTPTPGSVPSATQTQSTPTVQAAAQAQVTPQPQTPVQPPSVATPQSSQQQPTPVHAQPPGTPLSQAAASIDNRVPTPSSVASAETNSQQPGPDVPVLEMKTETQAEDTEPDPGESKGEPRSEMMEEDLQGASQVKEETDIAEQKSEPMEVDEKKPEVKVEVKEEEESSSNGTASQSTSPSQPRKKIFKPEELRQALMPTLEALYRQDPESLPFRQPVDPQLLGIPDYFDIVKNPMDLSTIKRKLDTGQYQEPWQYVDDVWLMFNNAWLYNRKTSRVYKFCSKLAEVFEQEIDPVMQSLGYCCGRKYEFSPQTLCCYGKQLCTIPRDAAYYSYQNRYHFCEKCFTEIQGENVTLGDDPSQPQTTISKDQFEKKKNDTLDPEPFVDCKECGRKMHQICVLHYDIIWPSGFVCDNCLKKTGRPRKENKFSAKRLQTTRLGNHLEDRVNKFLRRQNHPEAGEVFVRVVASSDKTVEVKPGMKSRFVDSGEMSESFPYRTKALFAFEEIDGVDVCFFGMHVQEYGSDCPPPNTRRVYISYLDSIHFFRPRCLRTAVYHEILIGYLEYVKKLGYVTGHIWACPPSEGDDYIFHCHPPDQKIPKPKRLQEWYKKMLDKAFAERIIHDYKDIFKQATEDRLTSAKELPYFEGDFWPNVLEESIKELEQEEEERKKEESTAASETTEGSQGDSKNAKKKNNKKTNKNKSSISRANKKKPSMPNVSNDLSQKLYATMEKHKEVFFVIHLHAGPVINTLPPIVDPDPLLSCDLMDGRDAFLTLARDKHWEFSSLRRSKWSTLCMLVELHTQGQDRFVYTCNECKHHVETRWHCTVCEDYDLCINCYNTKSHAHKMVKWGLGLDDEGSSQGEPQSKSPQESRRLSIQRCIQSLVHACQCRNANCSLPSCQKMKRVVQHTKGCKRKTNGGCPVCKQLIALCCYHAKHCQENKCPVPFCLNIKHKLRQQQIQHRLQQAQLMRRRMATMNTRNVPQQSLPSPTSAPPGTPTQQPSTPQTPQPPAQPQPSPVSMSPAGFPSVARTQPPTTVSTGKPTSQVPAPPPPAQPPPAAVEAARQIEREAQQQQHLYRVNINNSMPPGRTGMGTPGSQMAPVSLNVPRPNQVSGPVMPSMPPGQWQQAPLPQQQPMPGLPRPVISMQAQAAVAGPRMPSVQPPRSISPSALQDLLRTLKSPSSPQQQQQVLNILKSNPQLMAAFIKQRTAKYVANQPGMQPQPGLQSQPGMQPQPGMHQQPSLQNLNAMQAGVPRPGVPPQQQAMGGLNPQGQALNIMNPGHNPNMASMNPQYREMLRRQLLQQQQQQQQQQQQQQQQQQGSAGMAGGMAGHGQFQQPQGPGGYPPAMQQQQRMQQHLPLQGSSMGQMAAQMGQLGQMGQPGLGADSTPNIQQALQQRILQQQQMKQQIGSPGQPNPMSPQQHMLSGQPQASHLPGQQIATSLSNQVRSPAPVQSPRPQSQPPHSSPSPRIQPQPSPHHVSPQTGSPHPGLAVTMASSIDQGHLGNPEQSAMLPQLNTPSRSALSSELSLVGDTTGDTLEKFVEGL

According to patent publication US20250114345A1, “COMPOUNDS AND COMPOSITIONS AS CBP/P300 DEGRADERS AND USES THEREOF” (Oncopia Therapeutics, Inc. d/b/a/ SK Life Science Labs, priority 2023, published 2025):

Columns and labels:
p300 = p300 (Homo sapiens, UniProt Q09472); assay: P300 degradation, HiBit technology in A549 P300 HiBit cells (2 h); details: for P300 A549 2 h HiBit DMax (%): 2 hrs post treatment; for DC50: read-out: P300 A549 2 h HiBit DC50, 2 hrs post treatment
Protocol: (§1) p300 and CBP degradation potency and Dmax were determined using in cell western (ICW) assay technology in H1299 cells or HiBit technology in A549 HiBit cells.
(§2) A549 P300 HiBit and A549 CBP HiBit cells were plated in separate 384-well, TC treated, white-opaque, flat-bottomed microplate. Cells were plated at a cell density of 0.2×10^4 cells per well in assay media comprised of F-12K, 10% heat inactivated FBS, and 1% penicillin/streptomycin. Assay microplates containing HiBit cells were placed in a 37° C., 5% CO2, tissue culture incubator and left to equilibrate overnight. The next day cells were treated with serial dilutions of test compound made up of 10 mM stock solutions in DMSO. 384-Well plates containing treated cells were then placed back into a 37° C., 5% CO2, tissue culture incubator. Assay microplates containing A549 P300 HiBit cells were incubated for 2 hrs post treatment before P300 destruction was assessed, while microplates containing A549 CBP HiBit cells were incubated for 24 hrs post treatment before CBP destruction was determined. On the day of each assay time point, microplates were removed from the tissue culture incubator and prepared HiBit Lytic detection buffer (Promega, cat #N3O40) was added to each plate. Plates were covered with aluminum foil and incubated for ten minutes at room temperature on an orbital shaker. After incubation, luminescent signal of each plate was measured using the Envision instrument (Perkin Elmer).

CBP = CBP (Homo sapiens, UniProt Q92793); assay: CBP degradation, HiBit technology in A549 CBP HiBit cells (24 h); details: for CBP A549 24 h HiBit DMax (%): 24 hrs post treatment; for DC50: read-out: CBP A549 24 h HiBit DC50, 24 hrs post treatment
Protocol: as §1, §2

Structure (SMILES) | P300 A549 2 h HiBit DMax (%) (p300) | DC50 (p300) [nM] | CBP A549 24 h HiBit DMax (%) (CBP) | DC50 (CBP) [nM]
Cc1cc2c(N3CCCc4nc(-c5ccc(C(=O)NCC#Cc6cc7c([C@@H]8CCC(=O)NC8=O)cccc7o6)nc5)ncc43)nc(N3CCOCC3)cc2n(C)c1=O | B (“B”: 60-79%) | 10 to 99 | E (“E”: < 20%) | > 1000
Cc1cc2c(N3CCCc4nc(-c5ccc(C(=O)NCC#Cc6cc7c(C8CCC(=O)NC8=O)cccc7o6)nc5)ncc43)cc(C3CCOCC3)cc2n(C)c1=O (stereo not shown) | A (“A”: > 80%) | < 1 | E (“E”: < 20%) | > 1000
Cc1cc2c(N3CCCc4nc(-c5ccc(C(=O)NCC#Cc6cc7c(C8CCC(=O)NC8=O)nccc7o6)nc5)ncc43)nc(N3CCOCC3)cc2n(C)c1=O (stereo not shown) | A (“A”: > 80%) | < 1 | D (“D”: 20-39%) | 10 to 99
Cc1cc2c(N3CCOc4cc(-c5ccc(C(=O)NCC#Cc6cc7c(C8CCC(=O)NC8=O)cccc7o6)nc5)ncc43)cc(C3CCOCC3)nc2n(C)c1=O (stereo not shown) | A (“A”: > 80%) | < 1 | E (“E”: < 20%) | > 1000
